The numbers were not newly measured in patent US10858626B2, “Adoptive immunotherapy for treating cancer” (UNIVERSITÉ DE LAUSANNE, priority 2014, dated 2020), which cites them from elsewhere.

Sequences of proteins named here, by UniProt entry; tags and fusion partners are left off. Residues count along the entry.
UniProt P35968, 20-1356, species assumed: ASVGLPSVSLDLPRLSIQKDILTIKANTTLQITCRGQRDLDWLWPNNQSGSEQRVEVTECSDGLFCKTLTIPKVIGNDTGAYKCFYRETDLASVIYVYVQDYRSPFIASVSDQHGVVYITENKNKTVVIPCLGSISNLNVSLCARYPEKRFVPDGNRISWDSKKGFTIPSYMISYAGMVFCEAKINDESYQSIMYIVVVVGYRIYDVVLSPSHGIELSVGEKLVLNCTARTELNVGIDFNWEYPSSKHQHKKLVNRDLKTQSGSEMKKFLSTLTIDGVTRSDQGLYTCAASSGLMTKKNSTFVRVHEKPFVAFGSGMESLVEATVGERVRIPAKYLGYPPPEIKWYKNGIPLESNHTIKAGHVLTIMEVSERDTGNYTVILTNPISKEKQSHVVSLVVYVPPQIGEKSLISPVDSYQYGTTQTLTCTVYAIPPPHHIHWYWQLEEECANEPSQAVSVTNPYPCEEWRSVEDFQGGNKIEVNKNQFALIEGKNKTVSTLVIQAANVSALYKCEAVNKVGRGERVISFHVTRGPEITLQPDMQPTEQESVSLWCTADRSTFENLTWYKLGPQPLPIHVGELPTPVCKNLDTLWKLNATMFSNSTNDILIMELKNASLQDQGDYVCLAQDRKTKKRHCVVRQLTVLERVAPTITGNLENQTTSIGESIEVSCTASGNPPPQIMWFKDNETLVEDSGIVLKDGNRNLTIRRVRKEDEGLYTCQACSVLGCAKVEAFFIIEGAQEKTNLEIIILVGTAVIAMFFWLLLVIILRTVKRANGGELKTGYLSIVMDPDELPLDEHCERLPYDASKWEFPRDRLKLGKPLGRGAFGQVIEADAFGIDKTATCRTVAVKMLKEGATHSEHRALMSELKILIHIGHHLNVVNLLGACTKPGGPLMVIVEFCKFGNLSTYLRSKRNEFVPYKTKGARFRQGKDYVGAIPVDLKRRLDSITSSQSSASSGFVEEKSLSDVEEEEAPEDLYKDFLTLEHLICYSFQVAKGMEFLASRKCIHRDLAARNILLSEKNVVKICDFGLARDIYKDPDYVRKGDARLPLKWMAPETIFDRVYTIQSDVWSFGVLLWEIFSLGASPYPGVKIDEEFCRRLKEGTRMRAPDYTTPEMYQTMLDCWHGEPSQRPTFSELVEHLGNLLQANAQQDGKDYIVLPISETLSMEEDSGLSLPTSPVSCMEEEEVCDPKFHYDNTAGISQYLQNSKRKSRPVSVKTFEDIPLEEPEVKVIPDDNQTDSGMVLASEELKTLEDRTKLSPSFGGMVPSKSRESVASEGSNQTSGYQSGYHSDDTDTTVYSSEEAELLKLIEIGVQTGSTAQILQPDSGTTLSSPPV

A word on the IC50: it is the midpoint of a concentration-inhibition curve.

This data set has as its target VEGFR-2 (Homo sapiens, UniProt P35968). As to conditions: cited from earlier work.

For `O=C(Nc1cc(Oc2cc(F)c(NC(=O)C3(C(=O)Nc4ccc(F)cc4)CC3)cc2F)ccn1)C1CC1` [Altiratinib (DCC-2701), Altiratinib], the IC50 is 4 nM.
